# Test results: PubChem BioAssay AID743287 (Broad Institute, 2014)
# The list shows a part of the results, in another mix than the full data. Some salts or complexes appear as unconnected parts, following the source record. Calls of active or inactive are those of the source.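 Rule for the calls: active = lowest replicate activation of at least 40%, so every replicate reaches that level; inactive = the rest.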
# Test: primary screen for activators of insulin secretion dependent on glucose, INS-1E cells, GLuc reporter luminescence (AID 743287);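 note: 0% = median of neutral control wells and 100% = median of IBMX positive control wells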
# Conditions: INS-1E GLuc reporter insulin secretion, 2-3 h, at 16.6 µM, active compounds read high
row,Structure (SMILES),activation
1,COc1ccccc1-c1ccccn1.O=[N+]([O-])c1cc([N+](=O)[O-])c(O)c([N+](=O)[O-])c1,inactive: -7.1%
2,CCN(CC)CCCOC(=O)C(O)(c1ccccc1)c1ccccc1,inactive: 7.72%
3,CCOC(=O)c1ccc(NP(C)(=O)Oc2ccccc2)cc1 (stereo not given),inactive: 1.14%
4,COc1ccccc1OP(C)(=O)Nc1cc(Cl)ccc1C (stereo not given),inactive: 7.26%
5,O=[N+]([O-])c1cc([N+](=O)[O-])c(Nc2cccnc2)c([N+](=O)[O-])c1,inactive: 13.4%
6,Cc1cccc(C)c1OP(C)(N)=O (stereo not given),inactive: 3.31%
7,O=[N+]([O-])c1ccc2c(c1)C=Nc1ccccc1O2,inactive: 1.93%
8,COc1ccccc1OP(C)(=O)Nc1ccccc1 (stereo not given),inactive: 0.816%
9,CP(=O)(Nc1ccccc1Br)Oc1ccccc1 (stereo not given),inactive: 20.9%
10,CCOC(=O)c1ccc(NP(C)(=O)Oc2ccc(OC)cc2)cc1 (stereo not given),inactive: -24.3%
11,CP(=O)(Nc1ccccn1)Oc1ccc(Cl)cc1 (stereo not given),inactive: 8.82%
12,Cc1cccc(C)c1OP(C)(=O)Nc1ccc(SC(F)(F)F)cc1 (stereo not given),inactive: -24.8%
13,CP(=O)(Nc1ccc(SC(F)(F)F)cc1)Oc1ccc(Cl)cc1 (stereo not given),inactive: -22.1%
14,CP(=O)(Oc1ccccc1)OC(c1ccccc1)C(F)(F)F (stereo not given),inactive: 6.98%
15,CP(=O)(NC(=O)Nc1ccccc1)Oc1ccccc1 (stereo not given),inactive: 9.69%
16,Cc1cc(C)cc(OP(C)(=O)Nc2ccc(SC(F)(F)F)cc2)c1 (stereo not given),inactive: -15.6%
17,O=[N+]([O-])c1cc([N+](=O)[O-])c(-n2nnc3ccccc32)c([N+](=O)[O-])c1,inactive: -21.9%
18,CN(Cc1cccnc1)C(=O)COc1ccc(Cl)c(Cl)c1.O=[N+]([O-])c1cc([N+](=O)[O-])c(O)c([N+](=O)[O-])c1,inactive: -2.7%
19,CN1CCCCC1COC(=O)C1(O)c2ccccc2CCc2ccccc21 (stereo not given),inactive: -5.94%
20,CCCOc1ccc(NP(C)(=O)Oc2ccc(Cl)cc2)cc1 (stereo not given),inactive: -36.2%
21,CP(=O)(Nc1ccc(SC(F)(F)F)cc1)Oc1ccccc1 (stereo not given),inactive: -34.3%
22,COc1ccc(-c2ccccn2)cc1.O=[N+]([O-])c1cc([N+](=O)[O-])c(O)c([N+](=O)[O-])c1,inactive: 2.74%
23,O=[N+]([O-])c1cc([N+](=O)[O-])c(Nc2nnnn2CCO)c([N+](=O)[O-])c1,inactive: -5.56%
24,CCOC(=O)C(CC)C1=NC(C)(C)Cc2ccccc21.O=[N+]([O-])c1cc([N+](=O)[O-])c(O)c([N+](=O)[O-])c1 (stereo not given),inactive: 14.7%

row,Structure (SMILES),activation
1,CC1=NCCc2c1[nH]c1ccccc21.O=[N+]([O-])c1cc([N+](=O)[O-])c(O)c([N+](=O)[O-])c1,inactive: 19.1%
2,O=C(O)c1cccc(Nc2c([N+](=O)[O-])cc([N+](=O)[O-])cc2[N+](=O)[O-])c1,inactive: -29.5%
3,Cc1cc(C)cc(OP(C)(=O)Nc2ccccn2)c1 (stereo not given),inactive: 20%
4,CP(=O)(Nc1cccc(Br)c1)Oc1ccccc1 (stereo not given),inactive: -14%
5,COc1ccccc1OP(C)(=O)Nc1cccc(Br)c1 (stereo not given),inactive: 1.58%
6,Cc1cc(C)cc(OP(C)(=O)Nc2ccc(C)cc2C)c1 (stereo not given),inactive: 11.3%
7,CCOC(=O)c1ccc(NP(C)(=O)Oc2cc(C)cc(C)c2)cc1 (stereo not given),inactive: -31.7%
8,O=C(OCCN1CCN(CCOCc2ccccc2)CC1)C(O)(c1ccccc1)c1ccccc1,inactive: -14.2%
9,O=C(OC1CN2CCC1CC2)c1ccc([N+](=O)[O-])cc1 (stereo not given),inactive: 19.9%
10,COc1ccc2c(c1O)-c1c(O)c(OC)cc3c1[C@H](C2)[N+](C)(C)CC3.O=[N+]([O-])c1cc([N+](=O)[O-])c([O-])c([N+](=O)[O-])c1[O-],inactive: -0.797%
11,O=[N+]([O-])c1cc([N+](=O)[O-])c(Nc2ccc(Cl)cc2)c([N+](=O)[O-])c1,inactive: -40.4%
12,CC(C)c1ccc(OP(C)(=O)Nc2ccc(SC(F)(F)F)cc2)cc1 (stereo not given),inactive: -22.4%
13,CP(=O)(Nc1ccccc1F)Oc1ccccc1 (stereo not given),inactive: 5.6%
14,CCN(CC)CCCOC(=O)C(O)(c1ccccc1)C1CCCCC1 (stereo not given),inactive: 26.5%
15,Cc1c([N+](=O)[O-])cc([N+](=O)[O-])c(Br)c1[N+](=O)[O-],inactive: -0.289%
16,O=[N+]([O-])c1cc([N+](=O)[O-])c(OC2CCCCC2O)c([N+](=O)[O-])c1 (stereo not given),inactive: -7.86%
17,CCCCCOc1ccc(NP(C)(=O)Oc2ccc(Cl)cc2Cl)cc1 (stereo not given),inactive: -3.62%
18,CCN(CC)CCCNc1ccccc1[N+](=O)[O-].O=[N+]([O-])c1cc([N+](=O)[O-])c(O)c([N+](=O)[O-])c1,inactive: 22.3%
19,COc1ccc(OP(C)(=O)Nc2ccc(SC(F)(F)F)cc2)cc1 (stereo not given),inactive: -3.41%
20,CCOC(=O)c1ccc(NP(C)(=O)Oc2ccc(F)cc2)cc1 (stereo not given),inactive: 1.58%
21,O=[N+]([O-])c1cc([N+](=O)[O-])c(NCC2CCS(=O)(=O)C2)c([N+](=O)[O-])c1 (stereo not given),inactive: -15.1%
22,Cc1cc(-c2cccc3ccccc23)c(C)cn1.O=[N+]([O-])c1cc([N+](=O)[O-])c(O)c([N+](=O)[O-])c1,inactive: 17.7%
23,O=[N+]([O-])c1ccc(OP2(=O)COCCO2)cc1 (stereo not given),inactive: -2.6%
24,Cc1c(C(c2ccc3c(c2)OCO3)c2c(C)n(C)n(-c3ccccc3)c2=O)c(=O)n(-c2ccccc2)n1C.O=[N+]([O-])c1cc([N+](=O)[O-])c(O)c([N+](=O)[O-])c1,inactive: 4.17%

row,Structure (SMILES),activation
1,COc1ccc(NP(C)(=O)Oc2ccccc2OC)cc1 (stereo not given),inactive: 1.86%
2,O=[N+]([O-])c1cc([N+](=O)[O-])c(C(F)(F)F)c([N+](=O)[O-])c1O,inactive: -1.25%
3,Cc1ccccc1NP(C)(=O)Nc1ccccc1C,inactive: 10.9%
4,CP(=O)(Nc1ccc(SC(F)(F)F)cc1)Oc1ccc(F)cc1 (stereo not given),inactive: -4.52%
5,CCOP(=O)(CC)OCC,inactive: 9.34%
6,COc1ccccc1OP(C)(=O)Nc1ccccc1Br (stereo not given),inactive: 12.5%
7,CC(C)(C)c1ccc(OP(C)(=O)O)cc1,inactive: 15.1%
8,CN(C)C(=O)c1c([N+](=O)[O-])cc([N+](=O)[O-])cc1[N+](=O)[O-],inactive: 4.96%
9,COc1ccc(OP(C)(=O)Nc2ccc(Br)cc2)cc1 (stereo not given),inactive: -11.1%
10,CCc1ccc(OP(C)(=O)Nc2cccnc2)cc1 (stereo not given),inactive: -1.68%
11,O=C(OCCCN1CCCC1)C(O)(c1ccccc1)C1CCCCC1 (stereo not given),inactive: -11.3%
12,CP(=O)(OC12CC3CC(CC(C3)C1)C2)OC12CC3CC(CC(C3)C1)C2,inactive: 6.37%
13,CCOC(=O)c1ccc(NP(C)(=O)Oc2ccc(Cl)cc2)cc1 (stereo not given),inactive: -19.5%
14,CP(=O)(Nc1ccc(Cl)cc1Cl)Oc1ccccc1 (stereo not given),inactive: -6.44%
15,CCCCCCCCCCCCCCCC1C[N+](C)(C)CCOP(C)(=O)O1 (stereo not given),active: 103%
16,CP(=O)(OCCOc1ccccc1)OCCOc1ccccc1,inactive: 8.7%
17,O=C1C(O)=C([N+](=O)[O-])C(=O)C(O)=C1[N+](=O)[O-],inactive: 29.6%
18,Cc1cc(C)cc(OP(C)(=O)Nc2cccc(C(F)(F)F)c2)c1 (stereo not given),inactive: -6.97%
19,COc1ccc(OP(C)(=O)Nc2ccccc2Br)cc1 (stereo not given),inactive: 6.52%
20,O=[N+]([O-])c1cc([N+](=O)[O-])c(Nc2ccccn2)c([N+](=O)[O-])c1,inactive: -2.19%
21,COc1ccccc1OP(C)(=O)Nc1ccc(Br)cc1 (stereo not given),inactive: 0.435%
22,COc1ccc(OP(C)(=O)Nc2ccccn2)cc1 (stereo not given),inactive: -14.3%
